Measured values from patent publication US20240215587A1 (priority 2020, published 2024).

Tested on: rice seeds
Conditions: seed soaking 24 h in 1500 or 2000 times dilutions

CCCCCCCCCCCC[N+](C)(C)Cc1ccccc1.[Br-] [Dodecyl dimethyl benzyl ammonium bromide, dodecyl dimethyl benzyl ammonium bromide]
inhibitory effects on rice seed germination and seedling growth (in words): have inhibitory effects
